Results from paper PMC11507932, “Comparative Analysis on Polyphenolic Composition of Different Olive Mill Wastewater and Related Extra Virgin Olive Oil Extracts and Evaluation of Nutraceutical Properties by Cell-Based Studies” (Foods, 2024).

Test system: co-culture of Caco-2 and HT29-MTX cell lines
Assay: Intestinal permeability assay, Caco-2/HT29-MTX co-culture, LC-MS quantification
Type: in vitro ADME, human

Pinoresinol
calculated concentration, basolateral side (OMWW B1 sample, 30 min, mean ± SD (n = 3)): 3,83 ± 0,06 ng/mL
calculated concentration, basolateral side (OMWW B1 sample, 60 min, mean ± SD (n = 3)): 4,74 ± 0,21 ng/mL
calculated concentration, basolateral side (OMWW B1 sample, 120 min, mean ± SD (n = 3)): 6,33 ± 0,18 ng/mL
calculated concentration, basolateral side (OMWW B1 sample, 180 min, mean ± SD (n = 3)): 6,44 ± 2,76 ng/mL
calculated concentration, basolateral side (OMWW B1 sample, 240 min, mean ± SD (n = 3)): 8,57 ± 0,06 ng/mL
calculated concentration, apical side (OMWW B1 sample, apical (100% reference), mean ± SD (n = 3)): 20,00 ± 5,37 ng/mL
Mean Permeation Rate (±SD) at 240 min (polyphenol within OMWW B1 sample (500 µg/mL), apical to basolateral, 240 min): 44% and 44 ± 12%

Several values for one entry are separate records, joined by “and”; a condition that tells them apart may be missing. Equal values may be shown once.
